According to patent US12491252B2, “Substituted 3-amino-5-phenylbenzamide compounds as covalent inhibitors of enhancer zeste homolog 2 (EZH2) and proteolysis-targeting chimeric derivatives thereof (PROTACs) that induce degradation of EZH2” (Northwestern University, priority 2021, dated 2025):

Columns and labels:
Assay type in all cases: cell-based
C4-2B cells [1] = test: WST cell proliferation assay in C4-2B cells; conditions: FIG. 22, 6 days
Experimental: FIG. 22A-22B. WST cell proliferation assay of indicated compounds in C4-2B cells. Cells were treated for 6 days. […] (FIG. 19B) Effects of indicated compounds on EZH2, AR, and FOXA1 by western blot at 1 μM in C4-2B cells.
(§1) Cell proliferation was measured using WST-1 Kit (Clontech) according to manufacturer's protocol.

C4-2B cells [2] = test: Live imaging cell proliferation of C4-2B cells; conditions: FIG. 20A, monitored over 168 hours
Experimental: (§2) FIG. 20A-20B. (FIG. 20A) Live imaging cell proliferation of C4-2B cells. Cells were treated with indicated compounds and monitored over 168 hours for proliferation by phase object confluence. DMSO is set as the negative control. […] (FIG. 20B) Colony assays using C4-2B cells after treatment with the indicated compounds for 7 days.

LNCaP cells [3] = test: Live imaging cell proliferation of LNCaP cells; conditions: FIG. 17A, monitored over 168 hours
Experimental: as §2, with “FIG. 17A-17B.” for “FIG. 20A-20B.”, “(FIG. 17A)” for “(FIG. 20A)”, “of LNCaP” for “of C4-2B”, “(FIG. 17B)” for “(FIG. 20B)”, “using LnCaP” for “using C4-2B”

LNCaP cells [4] = test: WST cell proliferation/viability assay in LNCaP cells; conditions: FIG. 19A, 6 days
Experimental: FIG. 19A-19B. (FIG. 19A) WST cell proliferation assay of indicated compounds in LNCaP cells. […] (FIG. 19B) Effects of indicated compounds on EZH2, AR, and FOXA1 by western blot at 1 μM in LNCaP cells.
FIG. 23. WST cell viability assay of EPZ-6438 (“EPZ”) and 6272 across a concentration range in LNCaP cells after 5 days' treatment.
as §1

CCN(c1cc(-c2ccc(CN3CCOCC3)cc2)cc(C(=O)NCc2c(C)cc(C)[nH]c2=O)c1C)C1CCOCC1 [EPZ-6438, reference compound]
Inhibition of proliferation (WST) (C4-2B cells [1]): similarly potent effects on inhibiting the proliferation
Cell proliferation by phase object confluence (C4-2B cells [2]): significant effects
Cell proliferation by phase object confluence (LNCaP cells [3]): significant effects
Inhibition of proliferation (WST) (LNCaP cells [4]): similarly potent effects on inhibiting the proliferation
